{"sequences": {"note": "Protein sequences, listed by entry. Tags and fused reporters are not part of them.", "UniProt Q13547, whole entry": "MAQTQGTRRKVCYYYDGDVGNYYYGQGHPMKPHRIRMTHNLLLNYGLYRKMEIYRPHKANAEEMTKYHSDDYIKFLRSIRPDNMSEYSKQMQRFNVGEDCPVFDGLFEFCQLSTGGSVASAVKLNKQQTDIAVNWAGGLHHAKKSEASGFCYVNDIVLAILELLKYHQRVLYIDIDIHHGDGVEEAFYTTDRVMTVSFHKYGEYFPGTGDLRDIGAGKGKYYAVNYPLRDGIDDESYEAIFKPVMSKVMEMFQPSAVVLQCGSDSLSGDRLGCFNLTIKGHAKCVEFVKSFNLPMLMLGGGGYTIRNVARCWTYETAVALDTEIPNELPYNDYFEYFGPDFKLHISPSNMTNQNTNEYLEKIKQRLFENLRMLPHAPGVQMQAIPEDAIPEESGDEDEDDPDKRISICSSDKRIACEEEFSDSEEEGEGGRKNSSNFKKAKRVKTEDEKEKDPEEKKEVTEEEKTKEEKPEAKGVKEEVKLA"}, "source": "paper PMC4339887", "about": "“Selective Sirt2 inhibition by ligand-induced rearrangement of the active site” (Nature Communications, 2015)", "key": {"KDAC1": {"molecular_target": "T1, KDAC1 (Homo sapiens, UniProt Q13547)", "T1 construct": "purchased Enzo Life Sciences", "test": "in vitro KDAC1/6 assay, substrate ZMAL", "format": "biochemical", "procedure": "(§1) 5 times), Fmoc deprotection and amino acid coupling were repeated until the last amino acid was coupled and the Fmoc group was removed. The resin was washed with dichloromethane (DCM, 3 min, 5 times), methanol (5 min, 3 times) and DCM (3 min, 5 times). […]\n(§2) acid (TFA) at RT (1 h, 2 times). Cleaved peptide was precipitated with cold diethylether, filtrated and dried. The peptide was purified by semi-preparative HPLC (Merck-Hitachi High Speed LC system) using a Merck Hibar LiChrosorb RP-8 column (250–25 mm, 7 μm). For separation a linear gradient from 20–50% (vol/vol) acetonitrile (ACN) with 0.1% (vol/vol) TFA in 60 min was applied (flow-rate: 8 ml min-1). […]\n(§3) high-throughput fluorescence-based assay using the substrate ZMAL (Z-Lys(Acetyl)- […]\n(§4) A solution that contained DMSO was used a negative\n(§5) The reaction was started through the addition of KDAC1 (Enzo Life Sciences, 10 μL) or […]\n(§6) initial state conditions the substrate conversion was adjusted to 10–30% prior to inhibition tests. The reaction was stopped by the addition of a solution containing trypsin and TSA […]\n(§7) Then fluorescence intensity of the released fluorophore of the deacetylated lysine derivative was measured in a microplate […]\n(§8) reader (BMG Polarstar, Oex 390 nm, Oem 460 nm). The amount of inhibition was determined with respect to the mixture with only DMSO.\n(§9) Immunocytochemistry equipment and settings. […]"}, "KDAC6": {"molecular_target": "T2, KDAC6 (Homo sapiens, UniProt Q9UBN7)", "T2 construct": "purchased Enzo Life Sciences", "T2 sequence (Q9UBN7 1-1215)": "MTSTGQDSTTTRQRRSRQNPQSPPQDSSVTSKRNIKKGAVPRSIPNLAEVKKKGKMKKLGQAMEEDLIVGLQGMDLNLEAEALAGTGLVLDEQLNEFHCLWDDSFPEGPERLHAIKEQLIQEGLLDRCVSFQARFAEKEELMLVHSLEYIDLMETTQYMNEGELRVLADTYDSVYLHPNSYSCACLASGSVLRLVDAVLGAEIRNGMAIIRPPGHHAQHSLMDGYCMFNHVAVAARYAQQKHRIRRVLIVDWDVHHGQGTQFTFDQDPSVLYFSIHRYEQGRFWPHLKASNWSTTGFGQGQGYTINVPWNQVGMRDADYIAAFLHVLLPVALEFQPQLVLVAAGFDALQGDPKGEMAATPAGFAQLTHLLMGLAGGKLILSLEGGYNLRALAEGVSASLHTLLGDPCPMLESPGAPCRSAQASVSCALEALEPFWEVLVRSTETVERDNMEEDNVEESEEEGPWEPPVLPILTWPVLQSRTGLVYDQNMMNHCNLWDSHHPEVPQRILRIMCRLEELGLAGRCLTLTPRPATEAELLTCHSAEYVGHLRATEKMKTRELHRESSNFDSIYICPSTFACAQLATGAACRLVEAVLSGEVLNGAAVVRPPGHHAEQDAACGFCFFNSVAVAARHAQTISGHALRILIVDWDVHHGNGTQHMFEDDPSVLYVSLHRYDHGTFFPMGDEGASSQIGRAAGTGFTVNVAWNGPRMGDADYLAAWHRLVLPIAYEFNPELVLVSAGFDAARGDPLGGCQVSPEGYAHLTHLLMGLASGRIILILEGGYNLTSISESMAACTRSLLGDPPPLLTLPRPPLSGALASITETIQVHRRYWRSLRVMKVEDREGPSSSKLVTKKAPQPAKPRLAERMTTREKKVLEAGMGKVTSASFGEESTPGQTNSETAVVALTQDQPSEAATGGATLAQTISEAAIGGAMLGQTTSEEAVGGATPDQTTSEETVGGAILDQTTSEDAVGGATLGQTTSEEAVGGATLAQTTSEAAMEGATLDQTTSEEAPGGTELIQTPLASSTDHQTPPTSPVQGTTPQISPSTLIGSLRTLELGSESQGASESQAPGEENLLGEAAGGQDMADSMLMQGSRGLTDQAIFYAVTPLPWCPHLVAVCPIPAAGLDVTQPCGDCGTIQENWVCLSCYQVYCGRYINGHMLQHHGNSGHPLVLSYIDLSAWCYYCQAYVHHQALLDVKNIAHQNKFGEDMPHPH", "test": "in vitro KDAC1/6 assay, substrate ZMAL", "format": "biochemical", "procedure": "as §1, §2, §3, §4, §5, §6, §7, §8, §9"}}, "data": [{"smiles": "CC(/C=C/C(=O)NO)=C\\[C@@H](C)C(=O)c1ccc(N(C)C)cc1", "note": "[Trichostatin A, reference compound]", "values": [{"measurement": "activity of KDAC1", "setting": "KDAC1", "value": "significantly inhibits"}, {"measurement": "activity of KDAC6", "setting": "KDAC6", "value": "significantly inhibits"}]}]}
